Antibody variant affinities, Ab-91 heavy chain, assay 2

Values reported by Engelhart et al. 2022, doi:10.1038/s41597-022-01779-4 (FLAb copy).

All variants were tested on one target, the spike HR2 peptide PDVDLGDISGINAS (SARS-CoV-2).

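The starting antibody came from a phage panning campaign against this peptide. The library (AAYL51) carries one to three amino acid substitutions per variant, with no insertions or deletions. In AlphaSeq, yeast of one mating type display the scFv and yeast of the other type display the target. The frequency of each diploid, read from paired DNA barcodes, reflects how well the two displayed proteins bind. A regression on co-assayed BCL2-family reference pairs converts the normalised counts of each replicate to an apparent Kd. There are three technical replicates.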

Ab-91 is the parent antibody, in scFv form: VL, then the linker GGGGSGGGGSGGGGS, then VH. The light chain is unchanged in all variants.
VL: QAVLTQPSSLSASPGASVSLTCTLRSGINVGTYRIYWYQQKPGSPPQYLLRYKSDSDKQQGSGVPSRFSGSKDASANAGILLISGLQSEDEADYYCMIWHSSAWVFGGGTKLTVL
VH: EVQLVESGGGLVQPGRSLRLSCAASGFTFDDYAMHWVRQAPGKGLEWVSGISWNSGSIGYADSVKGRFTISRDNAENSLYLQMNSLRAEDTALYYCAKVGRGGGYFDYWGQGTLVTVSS

Substitutions are numbered in sequence along the VH above, starting at 1 (not Kabat).
Every variant below is changed at F106 of the VH (sequential numbering).
Scale: log10 of Kd in nM, estimated from mating counts; low values are strong binders.
Replicates are averaged; those with no signal do not enter the mean.
"not detected" means that the variant was in the library but no mating with the target was seen in any replicate; the authors take this as a sign of poor binding, and no number exists.
As a blank, each scFv also met three strains without target: over library AAYL51, 21% of these pairings were detected, typically at 4.54 and seldom below 3.26. Also given: how often the same scFv was detected with the empty control strains.

changes	log10 Kd (nM), mean	detected	empty controls
Y32T+I58W+F106G	not detected	0/3	0/9
A33M+K65A+F106T	not detected	0/3	0/9
F29V+R101H+F106C	3.70	1/3	2/9
G59H+G102Q+F106A	4.47	2/3	4/9
D62C+G103M+F106K	not detected	0/3	1/9
V99N+F106L	2.22	3/3	0/9
A33T+S55A+F106H	not detected	0/3	0/9
Y60F+F106E+D107A	5.14	1/3	4/9
F106P	4.79	2/3	1/9
A33Q+M34C+F106K	4.64	3/3	4/9
W53D+A61W+F106S	5.90	1/3	5/9
R101M+G103R+F106Q	4.83	1/3	1/9
T28Y+D30V+F106C	3.68	3/3	3/9
S57Q+Y60F+F106V	1.76	3/3	2/9
T28L+W53E+F106R	5.00	1/3	2/9
G103L+F106E	4.03	2/3	3/9
G26P+F27R+F106T	4.82	3/3	3/9
D30Y+F106Y+D107Q	1.64	3/3	2/9
D30N+V64K+F106P	4.49	1/3	4/9
I51R+V64H+F106R	4.70	2/3	2/9
G56F+V99N+F106D	not detected	0/3	0/9
I51R+S52M+F106V	5.36	2/3	4/9
F106M	not detected	0/3	1/9
Y32P+Y105P+F106M	not detected	0/3	0/9
T28S+H35G+F106W	not detected	0/3	1/9
S55C+V64A+F106R	3.85	2/3	1/9
G59E+F106R	not detected	0/3	2/9
A61P+V64W+F106V	3.39	1/3	0/9
I51R+F106S+Y108Q	not detected	0/3	2/9
D31Y+S63W+F106H	4.14	1/3	3/9
S55K+Y60L+F106S	5.14	1/3	5/9
W53E+S57K+F106Q	not detected	0/3	0/9
G26M+R101D+F106K	3.87	2/3	1/9
D30E+Y32M+F106Y	not detected	0/3	0/9
H35D+V99H+F106L	3.49	1/3	3/9
Y60E+R101K+F106S	not detected	0/3	0/9
N54Q+A61P+F106Q	not detected	0/3	1/9
F29N+D62E+F106S	2.49	1/3	0/9
G26A+V64A+F106E	not detected	0/3	0/9
A61V+G103E+F106P	2.74	3/3	1/9
W53Y+I58F+F106Y	4.09	1/3	3/9
K65P+V99W+F106L	not detected	0/3	3/9
G50C+A61T+F106K	4.17	2/3	2/9
V64N+F106G+D107H	5.32	2/3	3/9
Y32T+G56N+F106L	2.02	1/3	1/9
Y32E+V99M+F106E	5.06	3/3	3/9
S55Q+D62G+F106T	4.51	2/3	2/9
G59C+R101L+F106S	not detected	0/3	3/9
A33F+A61D+F106Q	not detected	0/3	2/9
G100E+F106L	4.35	1/3	2/9
N54M+G103I+F106D	3.97	1/3	1/9
S55V+Y105E+F106P	5.66	1/3	3/9
S55P+I58A+F106H	3.11	2/3	0/9
I51R+G104N+F106Y	not detected	0/3	0/9
I51V+G100D+F106W	not detected	0/3	0/9
R101F+G104Y+F106I	2.33	3/3	3/9
G50D+S52F+F106G	not detected	0/3	3/9
F27R+I58P+F106R	not detected	0/3	2/9
I51G+I58C+F106P	not detected	0/3	0/9
D30R+A33G+F106H	-0.23	3/3	9/9
Y105L+F106I+D107F	0.91	3/3	2/9
Y32E+I51M+F106P	not detected	0/3	1/9

The last 8 entries again:

| changes | log10 Kd (nM), mean | detected | empty controls |
|---|---|---|---|
| I51V+G100D+F106W | not detected | 0/3 | 0/9 |
| R101F+G104Y+F106I | 2.33 | 3/3 | 3/9 |
| G50D+S52F+F106G | not detected | 0/3 | 3/9 |
| F27R+I58P+F106R | not detected | 0/3 | 2/9 |
| I51G+I58C+F106P | not detected | 0/3 | 0/9 |
| D30R+A33G+F106H | -0.23 | 3/3 | 9/9 |
| Y105L+F106I+D107F | 0.91 | 3/3 | 2/9 |
| Y32E+I51M+F106P | not detected | 0/3 | 1/9 |